In ChEMBL document CHEMBL5365545, “Synthesis and Optimization of 1-Substituted Imidazo[4,5-c]quinoline TLR7 Agonists” (ACS Med Chem Lett, 2023):
The source made the active and inactive calls. The calls are words filed in the database; no cut-off is given here.

Tests used:
Format in all cases: cell-based
[1] = target: T1, Toll-like receptor 7 (Mus musculus) (UniProt P58681); test: Agonist activity at TLR7 in mouse RAW264.7 cells assessed as increase in NFkappaB activation; details: filed as agonist
T1 sequence (whole entry): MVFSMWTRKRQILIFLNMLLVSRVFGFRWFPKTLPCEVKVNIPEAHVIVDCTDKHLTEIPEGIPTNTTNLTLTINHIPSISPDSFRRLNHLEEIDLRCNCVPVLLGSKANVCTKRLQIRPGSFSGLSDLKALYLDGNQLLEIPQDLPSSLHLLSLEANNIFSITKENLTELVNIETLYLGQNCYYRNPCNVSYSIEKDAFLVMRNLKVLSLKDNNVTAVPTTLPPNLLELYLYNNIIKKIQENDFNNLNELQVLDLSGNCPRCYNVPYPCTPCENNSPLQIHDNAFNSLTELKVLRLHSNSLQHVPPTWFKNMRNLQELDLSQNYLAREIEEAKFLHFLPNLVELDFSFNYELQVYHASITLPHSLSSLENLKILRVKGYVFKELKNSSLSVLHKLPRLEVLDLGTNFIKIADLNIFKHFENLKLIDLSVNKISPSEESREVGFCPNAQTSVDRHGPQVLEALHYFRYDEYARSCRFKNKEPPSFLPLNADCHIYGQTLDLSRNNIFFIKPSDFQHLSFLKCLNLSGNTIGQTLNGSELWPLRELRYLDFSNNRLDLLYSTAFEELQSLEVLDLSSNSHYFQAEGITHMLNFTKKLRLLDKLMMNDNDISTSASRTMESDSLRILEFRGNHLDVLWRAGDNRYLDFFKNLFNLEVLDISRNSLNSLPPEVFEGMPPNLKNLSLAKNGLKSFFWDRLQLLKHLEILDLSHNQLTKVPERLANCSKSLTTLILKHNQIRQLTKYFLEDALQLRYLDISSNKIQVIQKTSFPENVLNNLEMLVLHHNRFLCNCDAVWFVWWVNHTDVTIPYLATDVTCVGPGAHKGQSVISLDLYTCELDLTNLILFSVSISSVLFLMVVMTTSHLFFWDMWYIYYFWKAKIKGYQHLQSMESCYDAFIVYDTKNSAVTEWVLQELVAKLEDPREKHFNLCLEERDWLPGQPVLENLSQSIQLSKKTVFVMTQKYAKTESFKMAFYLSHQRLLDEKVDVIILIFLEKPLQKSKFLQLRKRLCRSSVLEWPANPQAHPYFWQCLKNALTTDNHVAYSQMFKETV

[2] = target: T2, Toll-like receptor 8 (Homo sapiens) (UniProt Q9NR97); test: Agonist activity at TLR8 in HEK-Blue hTLR8 cells assessed as increase in NFkappaB activation at below 10 uM
T2 sequence (whole entry): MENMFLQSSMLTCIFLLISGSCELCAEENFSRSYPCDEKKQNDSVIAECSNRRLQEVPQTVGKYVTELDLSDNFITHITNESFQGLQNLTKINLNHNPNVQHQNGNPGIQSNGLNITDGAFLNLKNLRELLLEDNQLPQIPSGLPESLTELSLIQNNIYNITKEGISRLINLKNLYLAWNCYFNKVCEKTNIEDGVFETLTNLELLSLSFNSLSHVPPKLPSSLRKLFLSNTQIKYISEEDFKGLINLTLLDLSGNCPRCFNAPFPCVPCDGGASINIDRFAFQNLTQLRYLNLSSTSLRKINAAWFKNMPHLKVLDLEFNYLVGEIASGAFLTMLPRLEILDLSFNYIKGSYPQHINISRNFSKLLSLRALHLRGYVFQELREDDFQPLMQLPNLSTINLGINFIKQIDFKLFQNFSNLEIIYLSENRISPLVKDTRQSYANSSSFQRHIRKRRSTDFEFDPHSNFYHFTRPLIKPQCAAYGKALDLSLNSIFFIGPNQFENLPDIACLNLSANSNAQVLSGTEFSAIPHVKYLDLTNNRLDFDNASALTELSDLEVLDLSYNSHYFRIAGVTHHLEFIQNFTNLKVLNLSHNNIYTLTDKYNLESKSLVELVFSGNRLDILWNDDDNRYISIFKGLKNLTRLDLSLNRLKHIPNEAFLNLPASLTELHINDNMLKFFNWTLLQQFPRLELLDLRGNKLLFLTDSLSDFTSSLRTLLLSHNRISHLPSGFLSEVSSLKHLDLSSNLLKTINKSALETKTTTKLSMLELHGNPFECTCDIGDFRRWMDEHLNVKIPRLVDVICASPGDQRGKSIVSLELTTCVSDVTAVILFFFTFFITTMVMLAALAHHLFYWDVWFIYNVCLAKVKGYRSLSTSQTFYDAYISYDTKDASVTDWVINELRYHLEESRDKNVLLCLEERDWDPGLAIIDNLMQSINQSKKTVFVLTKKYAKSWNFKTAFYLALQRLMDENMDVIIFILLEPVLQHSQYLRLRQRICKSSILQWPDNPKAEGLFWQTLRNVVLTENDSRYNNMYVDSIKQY

[3] = target: T2, Toll-like receptor 8 (Homo sapiens); test: Agonist activity at TLR8 in GM-CSF induced human MDM cells assessed as increase in TNFalpha release at 2000 nM measured after 6 hrs; details: filed as agonist

SMILES	Activity [1]	Activity [2]	Activity [3]
CCCCc1nc2c(N)nc3ccccc3c2n1Cc1ccc(NC(=O)OC(C)C)cc1	Active	–	–
CCCCc1nc2c(N)nc3ccccc3c2n1Cc1ccc(NC(=O)CCNC(=O)OC(C)(C)C)cc1	Active	inactive	Active
CCCCC(=O)Nc1ccc(Cn2c(CCCC)nc3c(N)nc4ccccc4c32)cc1	Active	–	–
